Data reported in patent US10689391B2, “Isoxazole analogs as FXR agonists and methods of use thereof” (Enanta Pharmaceuticals, Inc., priority 2017, dated 2020).

The chains behind the UniProt entries cited, without tags or fusion partners.
UniProt Q96RI1, whole entry: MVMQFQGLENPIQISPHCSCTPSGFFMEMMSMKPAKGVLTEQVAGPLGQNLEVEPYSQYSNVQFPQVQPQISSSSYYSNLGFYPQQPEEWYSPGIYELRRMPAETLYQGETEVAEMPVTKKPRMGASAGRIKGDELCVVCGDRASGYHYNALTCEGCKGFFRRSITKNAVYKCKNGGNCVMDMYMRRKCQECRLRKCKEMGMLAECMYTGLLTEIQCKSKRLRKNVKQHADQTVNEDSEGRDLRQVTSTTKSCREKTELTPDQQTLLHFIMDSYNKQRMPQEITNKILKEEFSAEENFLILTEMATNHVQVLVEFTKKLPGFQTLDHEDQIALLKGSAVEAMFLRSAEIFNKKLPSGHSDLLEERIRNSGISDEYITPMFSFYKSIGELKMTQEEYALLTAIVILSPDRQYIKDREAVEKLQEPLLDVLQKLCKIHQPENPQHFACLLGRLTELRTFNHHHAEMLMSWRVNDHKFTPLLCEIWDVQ

Biological target: human FXR (NR1H4) (Homo sapiens, UniProt Q96RI1)
Experiment: Human FXR (NR1H4) Assay (Gal4 promoter driven luciferase reporter, Indigo Bioscience kit IB00601)
Format: cell-based
Conditions: CHO reporter cells expressing human NR1H4

Structure (SMILES): CC(C)Oc1cc(C(=O)O)cc2sc(N3C[C@@H]4CC[C@@H](NCc5c(-c6c(Cl)cccc6Cl)noc5C5CC5)[C@@H]4C3)nc12 (relative stereo)
- EC50 (luciferase, 22 hours incubation, potency ranges): 200 to 1000 nM
- Efficacy (%) (normalized to CDCA set as 100%): 49%
